## Antibody variant affinities, Ab-91 heavy chain, assay 2

The measurements come from Engelhart et al. 2022 (doi:10.1038/s41597-022-01779-4) through the FLAb antibody collection.

The target is the same throughout: PDVDLGDISGINAS, from the HR2 region of SARS-CoV-2 spike.

Parent: Ab-91, a human scFv built as VL, a 15-residue (Gly4Ser)3 linker, VH. Only the CDRs of the heavy chain vary.
VL: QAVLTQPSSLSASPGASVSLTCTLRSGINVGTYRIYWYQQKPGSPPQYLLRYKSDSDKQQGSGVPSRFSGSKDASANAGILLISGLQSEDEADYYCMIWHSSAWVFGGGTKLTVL
VH: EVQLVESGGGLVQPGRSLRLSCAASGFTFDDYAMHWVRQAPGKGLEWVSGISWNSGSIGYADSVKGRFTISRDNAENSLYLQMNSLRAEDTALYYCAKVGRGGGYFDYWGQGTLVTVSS

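In library AAYL51, one, two or three CDR residues were substituted; doubles and triples were drawn at random. AlphaSeq pools MATa yeast showing the antibodies with MATalpha yeast showing the peptide. After mating in shaken culture at 30 °C for 16 h, diploids were selected and their barcode pairs sequenced. The ratio of observed to expected reads was calibrated, replicate by replicate, on BCL2-family standards whose Kd was known from biolayer interferometry. The assay was run in three technical replicates.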

The parent's heavy chain CDRs are GFTFDDYAMH, GISWNSGSIGYADSVK, VGRGGGYFDY; each variant's own CDRs replace them letter for letter.
Numbers give log10(Kd / nM), so 0 is 1 nM and 3 is 1 µM. Smaller is tighter.
Replicates are averaged; those with no signal do not enter the mean.
"no signal" marks a missing value. The strain was present, yet no cells mated with the target were sequenced in any replicate, which points to weak or no binding.
For reference, the parent read 1.86 as the reference entry and 0.88 as a member of this library.
As a blank, each scFv also met three strains without target: over library AAYL51, 21% of these pairings were detected, typically at 4.54 and seldom below 3.26. The control count says in how many pairings with the empty strains this scFv gave a signal.

CDR-H1	CDR-H2	CDR-H3	mean log10 Kd (nM)	seen in	signal with controls
GFTFDDYAMH	GICWNSGSIGYADSVK	VGRVGGYFDY	no signal	0/3	1/9
GFTFWDYAMH	GISMNSGSIGYADSDK	VGRGGGYFDY	no signal	0/3	1/9
GFTFDDYAMH	GISGNSGSIGYADSVQ	VGRGGGYFDD	0.71	3/3	5/9
YFTFDDYAMH	GISWNSGSIWYADSVK	VGRGGGYFDV	no signal	0/3	1/9
GFTFDDYAMS	GISWNSGSIDYADSVK	VGRGDGYFDY	4.15	2/3	3/9
GFTFDDYAMH	GASWNSGSCGYASSVK	VGRGGGYFDY	no signal	0/3	0/9
GFTFDDYAMV	GISWNSGSIGYADFVK	VGRGGGYFVY	no signal	0/3	1/9
GFTFDDYAMH	GQSWNSGSIGYKDSVK	VGRGGGYFDS	no signal	0/3	0/9
GFTFDDYAMK	GISWNSGSIGYADSVK	VGLGKGYFDY	4.09	1/3	1/9
QFTFDDYAMH	GISWPSGSMGYADSVK	VGRGGGYFDY	no signal	0/3	0/9
GDTFDDYAMH	GISWNSGAIGYADSVK	VGRAGGYFDY	no signal	0/3	1/9
GFDFDDYAMH	GISWNSRSIGVADSVK	VGRGGGYFDY	no signal	0/3	1/9
EFTFPDYAMH	GISANSGSIGYADSVK	VGRGGGYFDY	4.74	3/3	9/9
GFTFDDYAMH	GIKRNSGSIGYADSVK	VGTGGGYFDY	no signal	0/3	1/9
GFTFLDYAMH	GISWNSGSIGYADSVK	IGRGGGYFDY	0.93	3/3	3/9
PFTFDDYAMH	GISWNSGTIGYADSVL	VGRGGGYFDY	4.40	3/3	5/9
TFTFDDYAMH	GISNNSGSIGYADNVK	VGRGGGYFDY	4.78	1/3	7/9
GFTFDDYAMH	GIRWNSRSIGYADSVK	VGRGGGFFDY	4.29	1/3	1/9
GFTEDDYAMH	GISWNSHSIGYADSVK	VGRGGDYFDY	5.23	1/3	0/9
GFRFDDYAMH	GISWNSGSIGYTDMVK	VGRGGGYFDY	no signal	0/3	2/9
GFTFDDPAMH	GISWESGSIGYADSVK	VGRGGGYFDE	no signal	0/3	0/9
GFTFDDYPMH	GDSWNSGSIGYADSQK	VGRGGGYFDY	no signal	0/3	0/9
GFTFDDYAMH	GISWNSGSFFYADGVK	VGRGGGYFDY	4.79	2/3	2/9
GFTFDDFAMH	GISWNSGSIGYADRMK	VGRGGGYFDY	2.59	3/3	0/9
GFCFDDYAMH	GISWNSGSIGYEDSVK	VGRGGVYFDY	4.77	1/3	4/9
GFTLDDYAMH	GISWNSGSIGIADSVK	VGRGGGYFDY	4.43	3/3	4/9
GFTFDDYAMH	TISYPSGSIGYADSVK	VGRGGGYFDY	4.98	3/3	6/9
GFTFDDSAMH	GISWNSGTIGYADSVK	VGRGGGTFDY	no signal	0/3	1/9
GFTFDDYAMK	GIYWNSGSIGYADSVK	SGRGGGYFDY	4.76	3/3	4/9
GFTFDDYAMH	IISKNSGSIGYADSDK	VGRGGGYFDY	3.94	1/3	0/9
GITFDDYAMH	GISWNSGSIGYADSGK	VQRGGGYFDY	4.27	1/3	1/9
GFTFDDYAMH	GISWNSGSIGYADSQK	YGRGDGYFDY	no signal	0/3	4/9
GFTFDDYAMH	GISWNSGSIGYADSVW	VGWGGGYFDL	2.67	1/3	0/9
GITFDDYAMH	GISWNSGSIGYADSVK	VGRGGKYGDY	no signal	0/3	1/9
GFTFDDYAMH	GISWNSGSIGYADSVK	ATRGGGYHDY	5.03	3/3	5/9
GFTFDDYAMH	GISWNSGSPGHADSVK	VGRNGGYFDY	4.44	1/3	3/9
GFTFVDYAMH	GISWNSGSIGYTDSVK	VGRGGGYFDY	no signal	0/3	2/9
GFTFLDYAMH	QISWNSGSIKYADSVK	VGRGGGYFDY	no signal	0/3	0/9
GFTFDLYAMH	GISANSGSIKYADSVK	VGRGGGYFDY	no signal	0/3	1/9
GFTFDDYAMH	GISWNSGSIGYPDSVK	YGGGGGYFDY	4.36	1/3	1/9
GFTFDDYAMW	GISWNSGNQGYADSVK	VGRGGGYFDY	no signal	0/3	0/9
VFTFDDYAMH	GISWNDGTIGYADSVK	VGRGGGYFDY	5.20	3/3	1/9
GFTFDWYAMH	GISANSGSIGYADSVK	VGIGGGYFDY	0.32	3/3	7/9
GFTFDDYAMH	GHSWNSGSIGYAPSVH	VGRGGGYFDY	no signal	0/3	0/9
GFTFDDYAMH	GISWTSGSIGYADSVK	VGRGGVYFDY	no signal	0/3	2/9
GFTFSDYAMH	GISWNSGSIDRADSVK	VGRGGGYFDY	no signal	0/3	1/9
GFTFMDYAMH	GISWNSPSIGYADSVK	WGRGGGYFDY	no signal	0/3	4/9
GFWFDDYAMR	GISWNSGSIGYADSVK	VGRGGGYFDY	4.44	1/3	4/9
GFTFDDYAMH	GVSWNSGSIGYAMSVK	VGRGGGRFDY	4.97	2/3	4/9
AFTFDDYYMH	GISWNSGSIGYADSAK	VGRGGGYFDY	5.73	2/3	2/9
FFTFDDYAMH	GISWNSGSIGYADEVK	VGRGGGYFEY	no signal	0/3	3/9
GFTFDDYPMH	GISWWSGSIGYADSVQ	VGRGGGYFDY	no signal	0/3	0/9
GFTFDDYAFH	GISWNSGHIGYADSVK	VGRRGGYFDY	1.90	2/3	0/9
GFTFDDYYSH	GISWNSGSIGYADIVK	VGRGGGYFDY	4.59	3/3	8/9
GFTFDDYAMH	GISLNANSIGYADSVK	VGRGGGYFDY	2.59	3/3	6/9
GFTFDDYAMH	GIEWNSGSIGYADSVQ	VGRGGQYFDY	4.60	1/3	4/9
GATFDDYAMG	GISWNSGSIGYADSVK	VGRGGGYFDL	4.23	1/3	3/9
GMTFDDYAMH	GIRWRSGSIGYADSVK	VGRGGGYFDY	no signal	0/3	1/9
GWTFDDYAMH	GISWNSGSIGYADSVK	NGRGGVYFDY	4.17	2/3	1/9
GFTFNDYAMH	GIHWNSGSIGYADSVK	VGRGGGYHDY	no signal	0/3	0/9
GFTFDDYAMH	GISWNSGSIGYLDSVK	GGRIGGYFDY	no signal	0/3	1/9
GFTFDDYAMH	GISWNDGSIGYAYSVK	TGRGGGYFDY	3.29	1/3	2/9
GFTFDDYAMH	GRSWNSGSIGYADCVL	VGRGGGYFDY	no signal	0/3	0/9
GFTFDDDAMH	GGSWNSGSIGYADSVK	VGRGGGYFDS	no signal	0/3	1/9
GFTFDDYAMH	GISWNSGSRGYADSVA	VGRGGGFFDY	no signal	0/3	0/9
GFTFDDYAMH	HISWNSGSIGYADSRK	VGRGGGYFDS	no signal	0/3	0/9

For reference, 9 entries of the list once more:

{"CDR-H1": "GFTFDDSAMH", "CDR-H2": "GISWNSGTIGYADSVK", "CDR-H3": "VGRGGGTFDY", "mean log10 Kd (nM)": "no signal", "seen in": "0/3", "signal with controls": "1/9"}
{"CDR-H1": "GFTFDDYAMH", "CDR-H2": "GHSWNSGSIGYAPSVH", "CDR-H3": "VGRGGGYFDY", "mean log10 Kd (nM)": "no signal", "seen in": "0/3", "signal with controls": "0/9"}
{"CDR-H1": "GDTFDDYAMH", "CDR-H2": "GISWNSGAIGYADSVK", "CDR-H3": "VGRAGGYFDY", "mean log10 Kd (nM)": "no signal", "seen in": "0/3", "signal with controls": "1/9"}
{"CDR-H1": "GFDFDDYAMH", "CDR-H2": "GISWNSRSIGVADSVK", "CDR-H3": "VGRGGGYFDY", "mean log10 Kd (nM)": "no signal", "seen in": "0/3", "signal with controls": "1/9"}
{"CDR-H1": "GFTFDDYAMH", "CDR-H2": "GISWNSGSIGYLDSVK", "CDR-H3": "GGRIGGYFDY", "mean log10 Kd (nM)": "no signal", "seen in": "0/3", "signal with controls": "1/9"}
{"CDR-H1": "GFTFDDYAMS", "CDR-H2": "GISWNSGSIDYADSVK", "CDR-H3": "VGRGDGYFDY", "mean log10 Kd (nM)": "4.15", "seen in": "2/3", "signal with controls": "3/9"}
{"CDR-H1": "GFTFNDYAMH", "CDR-H2": "GIHWNSGSIGYADSVK", "CDR-H3": "VGRGGGYHDY", "mean log10 Kd (nM)": "no signal", "seen in": "0/3", "signal with controls": "0/9"}
{"CDR-H1": "GFTFDDYAMH", "CDR-H2": "GISWTSGSIGYADSVK", "CDR-H3": "VGRGGVYFDY", "mean log10 Kd (nM)": "no signal", "seen in": "0/3", "signal with controls": "2/9"}
{"CDR-H1": "GFTFDDYAMH", "CDR-H2": "GQSWNSGSIGYKDSVK", "CDR-H3": "VGRGGGYFDS", "mean log10 Kd (nM)": "no signal", "seen in": "0/3", "signal with controls": "0/9"}